Data from ChEMBL document CHEMBL6121062, “Discovery, Optimization, and Preclinical Pharmacology of EP652, a METTL3 Inhibitor with Efficacy in Liquid and Solid Tumor Models” (J Med Chem, 2025).

By UniProt entry, the sequences of proteins in these tests, tags left out.
UniProt Q86U44, whole entry: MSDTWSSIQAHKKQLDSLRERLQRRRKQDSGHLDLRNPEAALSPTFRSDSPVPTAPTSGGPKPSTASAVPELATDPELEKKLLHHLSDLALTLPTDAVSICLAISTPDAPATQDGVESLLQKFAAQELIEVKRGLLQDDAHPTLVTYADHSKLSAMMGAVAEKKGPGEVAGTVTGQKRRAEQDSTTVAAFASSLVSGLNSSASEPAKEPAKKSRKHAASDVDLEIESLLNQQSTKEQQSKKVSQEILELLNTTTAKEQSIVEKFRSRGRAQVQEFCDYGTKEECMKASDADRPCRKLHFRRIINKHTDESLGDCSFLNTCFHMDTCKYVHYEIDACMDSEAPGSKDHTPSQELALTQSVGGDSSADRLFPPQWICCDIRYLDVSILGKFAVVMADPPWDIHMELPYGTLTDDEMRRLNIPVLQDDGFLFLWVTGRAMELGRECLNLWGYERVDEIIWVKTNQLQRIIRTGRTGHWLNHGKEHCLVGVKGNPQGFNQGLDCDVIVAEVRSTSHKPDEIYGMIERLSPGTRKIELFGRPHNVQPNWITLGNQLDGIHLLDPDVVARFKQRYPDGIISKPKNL

Experiments:
[1] = Selectivity ratio of inhibition of SET1b complex (unknown origin) to inhibition of METTL3/14 (unknown origin)
[2] = Selectivity ratio of inhibition of EZH2 complex (unknown origin) to inhibition of METTL3/14 (unknown origin)
[3] = Selectivity ratio of inhibition of NSD1 (unknown origin) to inhibition of METTL3/14 (unknown origin)
[4] = Selectivity ratio of inhibition of PRMT5 C449S mutant/MEP50 complex (unknown origin) to inhibition of METTL3/14 (unknown origin)
[5] = Selectivity ratio of inhibition of SUV39H2 (unknown origin) to inhibition of METTL3/14 (unknown origin)
[6] = Selectivity ratio of inhibition of PRMT5/MEP50 complex (unknown origin) to inhibition of METTL3/14 (unknown origin)
[7] = Selectivity ratio of inhibition of NSD2 T1150A mutant (unknown origin) to inhibition of METTL3/14 (unknown origin)
[8] = Selectivity ratio of inhibition of PRDM9 (unknown origin) to inhibition of METTL3/14 (unknown origin)
[9] = Selectivity ratio of inhibition of SMYD2 (unknown origin) to inhibition of METTL3/14 (unknown origin)
[10] = Selectivity ratio of inhibition of MLL1 complex (unknown origin) to inhibition of METTL3/14 (unknown origin)
[11] = Selectivity ratio of inhibition of SUV420H1TV2 (unknown origin) to inhibition of METTL3/14 (unknown origin)
[12] = Selectivity ratio of inhibition of PRMT4 (unknown origin) to inhibition of METTL3/14 (unknown origin)
[13] = Selectivity ratio of inhibition of SETDB1 (unknown origin) to inhibition of METTL3/14 (unknown origin)
[14] = Selectivity ratio of inhibition of SUV39H1 (unknown origin) to inhibition of METTL3/14 (unknown origin)
[15] = Selectivity ratio of inhibition of PRMT3 (unknown origin) to inhibition of METTL3/14 (unknown origin)
[16] = Selectivity ratio of inhibition of DNMT1 (unknown origin) to inhibition of METTL3/14 (unknown origin)
[17] = Selectivity ratio of inhibition of METTL1 (unknown origin) to inhibition of METTL3/14 (unknown origin)
[18] = target: N6-adenosine-methyltransferase catalytic subunit (Homo sapiens) (UniProt Q86U44); assay: Inhibition of METTL3 in human A549 cells assessed as fold change in Bcl-2 expression incubated for 72 hrs by Western blot analysis relative to control; type: cell-based
[19] = Selectivity ratio of inhibition of FTO (unknown origin) to inhibition of METTL3/14 (unknown origin)
[20] = Selectivity ratio of inhibition of SETD2 (unknown origin) to inhibition of METTL3/14 (unknown origin)
[21] = target: N6-adenosine-methyltransferase catalytic subunit (Homo sapiens) (UniProt Q86U44); assay: Inhibition of METTL3 in human A549 cells assessed as fold change in Bax expression incubated for 72 hrs by Western blot analysis relative to control; type: cell-based
[22] = Selectivity ratio of inhibition of EZH2 Y641F mutant complex (unknown origin) to inhibition of METTL3/14 (unknown origin)
[23] = target: N6-adenosine-methyltransferase catalytic subunit (Homo sapiens) (UniProt Q86U44); assay: Inhibition of METTL3 in human FaDu cells assessed as fold change in Bax expression incubated for 72 hrs by Western blot analysis relative to control; type: cell-based
[24] = Selectivity ratio of inhibition of DNMT3b/3L (unknown origin) to inhibition of METTL3/14 (unknown origin)
[25] = Selectivity ratio of inhibition of SMYD3 (unknown origin) to inhibition of METTL3/14 (unknown origin)
[26] = Selectivity ratio of inhibition of MLL2 complex (unknown origin) to inhibition of METTL3/14 (unknown origin)
[27] = Selectivity ratio of inhibition of SET7/9 (unknown origin) to inhibition of METTL3/14 (unknown origin)
[28] = Selectivity ratio of inhibition of NSD3 (unknown origin) to inhibition of METTL3/14 (unknown origin)
[29] = Selectivity ratio of inhibition of MLL3 complex (unknown origin) to inhibition of METTL3/14 (unknown origin)
[30] = Selectivity ratio of inhibition of PRMT6 (unknown origin) to inhibition of METTL3/14 (unknown origin)
[31] = target: N6-adenosine-methyltransferase catalytic subunit (Homo sapiens) (UniProt Q86U44); assay: Inhibition of METTL3 in human SK-OV-3 cells assessed as fold change in Bcl-2 expression incubated for 72 hrs by Western blot analysis relative to control; type: cell-based
[32] = Selectivity ratio of inhibition of DOT1L (unknown origin) to inhibition of METTL3/14 (unknown origin)
[33] = Selectivity ratio of inhibition of SET8 (unknown origin) to inhibition of METTL3/14 (unknown origin)
[34] = Selectivity ratio of inhibition of GLP (unknown origin) to inhibition of METTL3/14 (unknown origin)
[35] = Selectivity ratio of inhibition of ASHIL (unknown origin) to inhibition of METTL3/14 (unknown origin)
[36] = Selectivity ratio of inhibition of PRMT8 (unknown origin) to inhibition of METTL3/14 (unknown origin)
[37] = target: N6-adenosine-methyltransferase catalytic subunit (Homo sapiens) (UniProt Q86U44); assay: Inhibition of METTL3 in human SK-OV-3 cells assessed as fold change in Bax expression incubated for 72 hrs by Western blot analysis relative to control; type: cell-based
[38] = target: N6-adenosine-methyltransferase catalytic subunit (Homo sapiens) (UniProt Q86U44); assay: Inhibition of METTL3 in human FaDu cells assessed as fold change in Bcl-2 expression incubated for 72 hrs by Western blot analysis relative to control; type: cell-based
[39] = Selectivity ratio of inhibition of PRMT7 (unknown origin) to inhibition of METTL3/14 (unknown origin)
[40] = Selectivity ratio of inhibition of PRMT1 (unknown origin) to inhibition of METTL3/14 (unknown origin)
[41] = Selectivity ratio of inhibition of EZH1 complex (unknown origin) to inhibition of METTL3/14 (unknown origin)
[42] = Selectivity ratio of inhibition of DNMT3b (unknown origin) to inhibition of METTL3/14 (unknown origin)
[43] = Selectivity ratio of inhibition of DNMT3a (unknown origin) to inhibition of METTL3/14 (unknown origin)
[44] = Selectivity ratio of inhibition of G9a (unknown origin) to inhibition of METTL3/14 (unknown origin)
[45] = Selectivity ratio of inhibition of NSD2 E1099K mutant (unknown origin) to inhibition of METTL3/14 (unknown origin)
[46] = Selectivity ratio of inhibition of NSD2 (unknown origin) to inhibition of METTL3/14 (unknown origin)

Ratio [1]: > 500 | Ratio [2]: > 500 | Ratio [3]: > 500 | Ratio [4]: > 500 | Ratio [5]: > 500 | Ratio [6]: > 500 | Ratio [7]: > 500 | Ratio [8]: > 500 | Ratio [9]: > 500 | Ratio [10]: > 500 | Ratio [11]: > 500 | Ratio [12]: > 500 | Ratio [13]: > 500 | Ratio [14]: > 500 | Ratio [15]: > 500 | Ratio [16]: > 500 | Ratio [17]: > 500 | fold change (FC) [18]: 0.3 | Ratio [19]: > 500 | Ratio [20]: > 500 | fold change (FC) [21]: 1.6 | Ratio [22]: > 500 | fold change (FC) [23]: 1.9 | Ratio [24]: > 500 | Ratio [25]: > 500 | Ratio [26]: > 500 | Ratio [27]: > 500 | Ratio [28]: > 500 | Ratio [29]: > 500 | Ratio [30]: > 500 | fold change (FC) [31]: 0.9 | Ratio [32]: > 500 | Ratio [33]: > 500 | Ratio [34]: > 500 | Ratio [35]: > 500 | Ratio [36]: > 500 | fold change (FC) [37]: 1.6 | fold change (FC) [38]: 0.6 | Ratio [39]: > 500 | Ratio [40]: > 500 | Ratio [41]: > 500 | Ratio [42]: > 500 | Ratio [43]: > 500 | Ratio [44]: > 500 | Ratio [45]: > 500 | Ratio [46]: > 500
Compound: C[C@@H](n1cc(-c2cncc(N(C)C)c2)nn1)n1ccc(N2CCC[C@@H](NCC3CC3)C2)cc1=O
